Results from patent US20170362325A1.

Chains of the proteins cited; added tags and fusions are not shown. Residues count along the entry.
UniProt P01375, 77-233 limits assumed: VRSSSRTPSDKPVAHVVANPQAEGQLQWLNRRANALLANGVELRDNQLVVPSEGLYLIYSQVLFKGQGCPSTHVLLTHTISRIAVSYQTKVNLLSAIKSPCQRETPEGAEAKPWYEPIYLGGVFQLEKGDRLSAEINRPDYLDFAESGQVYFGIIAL

Target: TNFalpha (UniProt P01375)
Assay: cell-based or functional assay

3H-thymidine uptake (cpm), PBMC + HUVEC + CD105×CD3, on target activation (FIG. 4A): 80000 cpm
3H-thymidine uptake (cpm), PBMC + HUVEC + PSMA×CD3, off target activation (FIG. 3A; control about 30000 cpm): 20000 cpm
Substance: anti-TNFalpha antibody molecule infliximab
